Source: patent US6566493B1, “Peptidomimetics containing 6-peptidylamino-1-naphthalenesulfonamide moieties” (dated 2003)

The chains behind the UniProt entries cited, without tags or fusion partners. Residues count along the entry.
UniProt P04070, 43-197 partner limits assumed: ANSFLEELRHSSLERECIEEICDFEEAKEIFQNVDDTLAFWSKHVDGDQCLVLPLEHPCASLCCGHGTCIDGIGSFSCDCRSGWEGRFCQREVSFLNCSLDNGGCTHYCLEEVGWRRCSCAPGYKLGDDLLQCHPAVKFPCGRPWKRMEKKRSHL
UniProt P04070, 212-461 limits assumed: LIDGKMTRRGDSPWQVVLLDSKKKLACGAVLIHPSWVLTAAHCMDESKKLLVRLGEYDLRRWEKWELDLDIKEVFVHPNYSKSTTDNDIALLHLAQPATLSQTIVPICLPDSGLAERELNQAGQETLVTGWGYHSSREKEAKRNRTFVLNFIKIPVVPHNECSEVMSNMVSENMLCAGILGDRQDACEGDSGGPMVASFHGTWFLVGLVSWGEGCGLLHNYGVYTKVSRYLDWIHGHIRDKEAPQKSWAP
UniProt P00742, 41-179 partner limits assumed: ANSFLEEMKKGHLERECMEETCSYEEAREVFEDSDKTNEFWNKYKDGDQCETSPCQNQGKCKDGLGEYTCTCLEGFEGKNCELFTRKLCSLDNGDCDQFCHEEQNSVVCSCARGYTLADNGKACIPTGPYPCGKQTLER
UniProt P00742, 235-488 limits assumed: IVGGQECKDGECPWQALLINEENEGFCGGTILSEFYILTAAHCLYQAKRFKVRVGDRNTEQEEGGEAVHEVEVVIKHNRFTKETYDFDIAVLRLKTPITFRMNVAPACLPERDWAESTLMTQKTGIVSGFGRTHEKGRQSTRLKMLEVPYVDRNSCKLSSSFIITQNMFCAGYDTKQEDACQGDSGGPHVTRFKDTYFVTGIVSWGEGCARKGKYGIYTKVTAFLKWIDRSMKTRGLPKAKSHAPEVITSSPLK

Columns and labels:
[1] = biological target: APC (Homo sapiens, UniProt P04070); assay: Inhibition constant assay (APC, Spectrozyme TH hydrolysis); settings: for Ki: read-out: Ki:APC, 5 nM APC, Spectrozyme TH 100, 200 and 600 μM
[2] = tested on: thrombin generation; assay: Tissue factor pathway to thrombin, no coagulation inhibitors (Example 9); settings: 40 μM compound; protein C and TFPI absent; FIG. 8
[3] = tested on: thrombin generation; assay: Tissue factor pathway to thrombin, TFPI present, factor VIII absent (Example 7); settings: 40 μM compound, 2.5 nM TFPI present, FIG. 6
[4] = tested on: thrombin generation; assay: Tissue factor pathway to thrombin, APC pathway present, factor VIII absent (Example 4); settings: 40 μM compound, PC, Tm present, FIG. 3
[5] = tested on: thrombin generation; assay: Tissue factor pathway to thrombin, reconstituted model, protein C pathway present (Example 3); settings: 40 μM compound; 0.5 pM factor VIIa; PC and Tm present; FIG. 2
[6] = tested on: thrombin generation; assay: Tissue factor pathway to thrombin, APC pathway and TFPI present, factor VIII absent (Example 8); settings: 40 μM compound or 20 μM each, PC pathway and TFPI present, FIG. 7
[7] = biological target: factor Xa (Homo sapiens, UniProt P00742); assay: Inhibition constant, factor Xa; settings: read-out: Ki:Xa
[8] = biological target: IIa (Homo sapiens, UniProt P00734); assay: Inhibition constant, IIa (thrombin); settings: read-out: Ki:IIa

## CCOC(=O)[C@H](CCCNC(=N)N)NC(=O)[C@H](CCC(N)=O)NS(=O)(=O)c1ccc2cc(NC(=O)[C@H](CCCCNC(=N)N)NC(=O)[C@H](CCCNC(=N)N)NC(=O)[C@H](CC(=O)OC)NC(=O)[C@H](CC(C)C)NC(=O)OC(C)(C)C)ccc2c1
[1]
  Ki: 160 µM

## C[C@@H](O)[C@H](NC(=O)[C@H](CCCCN)NC(=O)[C@@H](N)CCCCN)C(=O)N[C@@H](CCCCNC(=N)N)C(=O)Nc1ccc2cc(S(=O)(=O)N[C@@H](CCCCNC(=O)OCc3ccccc3)C(=O)N[C@@H](CCCCNC(=O)OCc3ccccc3)C(=O)OCc3ccccc3)ccc2c1
[2]
  lag phase of thrombin generation: decrease the lag phase of thrombin generation
  maximum rate of prothrombin activation: increase the maximum rate of prothrombin activation
[3]
  compensation of absence of factor VIII, thrombin generation: compensate for the absence of factor VIII
[3]; vs control
  time to reach explosive thrombin generation phase: faster
[4]
  compensation of absence of factor VIII, thrombin generation: completely compensated
  maximum rate of thrombin generation: significantly higher than that in control experiment or in the presence of compound 9
[4]; vs control with factor VIII
  onset of explosive phase of thrombin generation: earlier than in the control experiment
[5]
  effect on thrombin generation in presence of PC pathway: completely compensates for the presence of PC pathway
[6]
  compensation of absence of factor VIII, thrombin generation: completely compensated

## C[C@@H](O)[C@H](NC(=O)[C@H](CCCCN)NC(=O)[C@H](CCCCN)NC(=O)OCc1ccccc1)C(=O)N[C@@H](CCCNC(=N)N)CC(=O)Nc1ccc2c(S(=O)(=O)N[C@@H](CCCCNC(=O)OCc3ccccc3)C(=O)N[C@@H](CCCCNC(=O)OCc3ccccc3)C(=O)OCc3ccccc3)cccc2c1
[1]
  Ki: 2.3 µM

## C[C@@H](O)[C@H](NC(=O)[C@H](CCCCN)NC(=O)[C@H](CCCCN)NC(=O)OCc1ccccc1)C(=O)N[C@H](CCCNC(=N)N)C(=O)Nc1ccc2c(S(=O)(=O)N[C@@H](CCCCNC(=O)OCc3ccccc3)C(=O)N[C@@H](CCCCNC(=O)OCc3ccccc3)C(=O)OCc3ccccc3)cccc2c1
[7]
  Ki: 280 µM
[8]
  Ki: > 5000 µM
[1]
  Ki: 1.1 µM

## C[C@@H](O)[C@H](NC(=O)[C@H](CCCCN)NC(=O)[C@H](CCCCN)NC(=O)OCc1ccccc1)C(=O)N[C@@H](CCCCNC(=N)N)C(=O)Nc1ccc2cc(S(=O)(=O)N[C@@H](CCCCNC(=O)OCc3ccccc3)C(=O)N[C@@H](CCCCNC(=O)OCc3ccccc3)C(=O)OCc3ccccc3)ccc2c1
[1]
  Ki ratio for factor Xa/APC: 570

## C[C@@H](O)[C@H](NC(=O)[C@H](CCCCNC(=O)OCc1ccccc1)NC(=O)[C@H](CCCCN)NC(=O)OCc1ccccc1)C(=O)N[C@@H](CCCCNC(=N)N)C(=O)Nc1ccc2c(S(=O)(=O)N[C@@H](CCCCNC(=O)OCc3ccccc3)C(=O)N[C@@H](CCCCNC(=O)OCc3ccccc3)C(=O)OCc3ccccc3)cccc2c1
[7]
  Ki: 230 µM
[1]
  Ki: 1.5 µM
